Our source for the actin-activated steady-state ATPase activity of NM myosin-II (free phosphate, spectrophotometric), stimulation relative to Ac-β-actin (% of Ac-β-actin) values is publication PMC12617405.

The target in this assay is human non-muscle myosin-IIA heavy meromyosin (HMM NMIIA) (human).

For the substance “recombinant human arginylated-β-actin (natural protein)”, the actin-activated steady-state ATPase activity of NM myosin-II (free phosphate, spectrophotometric), stimulation relative to Ac-β-actin (% of Ac-β-actin) worked out at 40.
